Experimental data as given in US20160030426A1, “HETEROARYL COMPOUNDS AND USES THEREOF” (CELGENE AVILOMICS RESEARCH, INC., priority 2013, published 2016).

The chains behind the UniProt entries cited, without tags or fusion partners. Where a name states a change or a piece, a line headed by the entry shows the natural chain unless it says otherwise.
UniProt Q06187: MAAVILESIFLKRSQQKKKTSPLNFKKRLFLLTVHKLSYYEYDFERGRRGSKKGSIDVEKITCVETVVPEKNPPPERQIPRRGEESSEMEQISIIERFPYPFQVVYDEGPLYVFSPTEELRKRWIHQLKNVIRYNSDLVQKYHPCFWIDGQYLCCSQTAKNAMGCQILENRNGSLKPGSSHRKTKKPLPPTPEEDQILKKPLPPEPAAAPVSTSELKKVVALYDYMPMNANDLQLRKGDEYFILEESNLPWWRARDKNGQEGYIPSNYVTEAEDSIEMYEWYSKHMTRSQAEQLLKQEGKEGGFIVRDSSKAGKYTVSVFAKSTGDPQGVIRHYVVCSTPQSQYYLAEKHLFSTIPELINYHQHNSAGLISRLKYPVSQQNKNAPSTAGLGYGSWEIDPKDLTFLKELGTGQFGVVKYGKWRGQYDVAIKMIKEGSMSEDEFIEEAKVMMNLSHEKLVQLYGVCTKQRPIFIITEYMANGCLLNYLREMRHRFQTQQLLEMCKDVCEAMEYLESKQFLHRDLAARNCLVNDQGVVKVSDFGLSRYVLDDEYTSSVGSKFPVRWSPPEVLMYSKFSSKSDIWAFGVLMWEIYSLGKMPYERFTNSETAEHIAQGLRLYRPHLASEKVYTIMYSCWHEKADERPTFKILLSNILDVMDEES

Molecular target: BTK (Homo sapiens, UniProt Q06187)
Test: Omnia assay for potency assessment against BTK
Type: biochemical
Conditions: [BTK]=5 nM, [ATP]=40 mM, [Y5-Sox]=10 mM; 30 min pre-incubation at 27° C.; read-out: BTK Inhibition
Experimental: 5 μL of each enzyme were pre-incubated in a Corning (#3574) 384-well, white, non-binding surface microtiter plate (Corning, N.Y.) for 30 min. at 27° C. with a 0.5 μL volume of 50% DMSO and serially diluted compounds prepared in 50% DMSO. Kinase reactions were started with the addition of 45 μL of the ATP/Tyr-Sox peptide substrate mix and monitored every 30-90 seconds for 60 minutes at λex360/λem485 in a Synergy^4 plate reader from BioTek (Winooski, Vt.). At the conclusion of each assay, progress curves from each well were examined for linear reaction kinetics and fit statistics (R^2, 95% confidence interval, absolute sum of squares). Initial velocity (0 minutes to ˜30 minutes) from each reaction was determined from the slope of a plot of relative fluorescence units vs time (minutes) and then plotted against inhibitor concentration to estimate IC50 from log[Inhibitor] vs Response, Variable Slope model in GraphPad Prism from GraphPad Software (San Diego, Calif.).

- IC50: ≤ 10 nM
Compound: [2H]C([2H])([2H])OC([2H])([2H])C([2H])([2H])Oc1ccc(Nc2ncc(F)c(Nc3cccc(NC(=O)C=C)c3)n2)cc1 [II-7]
